# Shown are actives, neighbours in structure and some others; about 1.5% of the full set was active somewhere.
# Yeast UUG start – modulators of start codon recognition fidelity in yeast; AID 602363; activity score, % at 18.7 µM; S. cerevisiae UUG-firefly luciferase reporter, luminescence/redox ratio; actives 0.13% (n = 350,000);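 active = replicate mean at a twofold rise or more, about +100% in these data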;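 note: firefly luciferase made from a UUG start codon reports start codon fidelity; reporter light over untreated wells divided by growth signal over untreated wells; some hits fall short of that in this replicate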
# PABP FP inh – PABP-poly(A) binding inhibition. 290,000 compounds, 1% hits. P11940. PABP-poly(A) RNA binding, fluorescence polarization. calls only at 35 µM. AID 2014;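 also: calls also rest on retests at 20 µM and on dose response follow-up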
# MLLE-PAM2 inh – inhibitors of microRNA-mediated deadenylation, human PABP1 MLLE binding; P11940; AID 588489; GST-MLLE / FITC-PAM2 fluorescence polarization; 360,000 compounds, 0.36% hits; inhibition, % at 20 µM; in the data active = inhibition above about 35%, passing the limit was not always enough;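 also: plate controls were DMSO wells with GST-MLLE for no effect and wells lacking GST-MLLE protein for full effect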
# eIF4H FP inh – inhibitors of RNA binding by human eIF4H; eIF4H fluorescence polarization binding assay; inhibition, % at 35 µM; 290,000 compounds, 0.94% hits; AID 2012;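 also: calls also rest on retests at 20 µM and on dose response follow-up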
# DSG3 Ab inh – human desmoglein-3 autoantibody binding inhibition | P32926 | DSG3-coupled beads, scFv-anti-DSG3-GFP binding, flow cytometry; hits give low values | binding (percent of control), % at 10 µM | 310,000 compounds, 0.48% hits | AID 588358;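 active = binding more than 3 SD below its plate's average and above zero; inconclusive = below that plate limit but binding exactly zero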;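 also: hits lower antibody fragment binding to DSG3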
# Starred values were filed as active, the others as inactive; i = inactive; ? = inconclusive; . = not tested or not shown; + = active, no number. Unless noted, no rule for the calls is given here.
# Order of values – Yeast UUG start	PABP FP inh	MLLE-PAM2 inh	eIF4H FP inh	DSG3 Ab inh
1) COCC(=O)N1[C@H](C#N)[C@H](c2ccc(C3=CCCCC3)cc2)[C@@H]1CO
 : 7.8	.	.	.	.
2) COc1ccc(N/C=C\C(=O)c2ccc(Br)cc2)cc1OC
 : .	i	-91.2	71.4*	100.0
3) NS(=O)(=O)c1ccc(N/C=C/C(=O)c2ccc(Br)cc2)cc1
 : -11.8	i	-4.2	8.0	92.6*
4) COc1ccc(N/C=C\C(=O)c2ccc(C)cc2)cc1OC
 : .	i	-9.9	-0.2	96.1
5) C[C@H](CO)N1C[C@H](C)[C@H](CN(C)S(=O)(=O)c2ccc(F)cc2)Oc2ccc(NC(=O)Nc3ccccc3)cc2C1=O
 : -3.8	.	.	.	.
6) COc1ccc(C)cc1S(=O)(=O)N(CC(=O)Nc1cc([N+](=O)[O-])ccc1C)c1ccc(C)c(C)c1
 : .	+	-1.7	active	108.8
7) O=C(/C=C/c1ccc(F)cc1)Nc1nc2ccccc2[nH]1
 : .	+	.	active	.
8) O=c1[nH]c2ccccc2nc1/C=C/c1ccc(F)cc1
 : -13.1	+	-69.5	86.2	126.2
9) CS(=O)(=O)c1ccc2nc(NC(=O)c3ccccc3)sc2c1
 : -27.7	i	-1.9	-5.4	104.1
10) CS(=O)(=O)c1ccc2nc(NC(=O)Nc3ccccc3F)sc2c1
 : -11.1	i	-1.9	-8.0	88.4*
11) Nc1ccc(N)c(C(=O)O)c1
 : -5.0	.	55.4	.	51.1*
12) Nc1ccc(C(=O)O)c(O)c1
 : 1.4	i	-7.7	?	118.7
13) C/C=C/c1ccc([C@@H]2[C@@H](C#N)N(c3ncc(CC)s3)[C@@H]2CO)cc1
 : -5.2	.	.	.	.
14) CCc1ccc(CCC(=O)Nc2ccc(OC)cc2)o1
 : -1.7	i	-7.5	-5.9	105.0
15) COc1ccc(C(N)CCc2ccc(C)o2)cc1 (configuration not stated)
 : 0.3	+	-34.5	87.1	120.0
16) CN(C)CCCNC(=O)C[C@H]1CC[C@@H]2[C@H](COC[C@H](O)CN2Cc2cccc(F)c2)O1
 : -2.9	.	.	.	.
17) C[C@H](CO)N1C[C@H](C)[C@H](CN(C)S(=O)(=O)c2cn(C)cn2)Oc2c(NS(=O)(=O)c3ccccc3)cccc2C1=O
 : -11.0	.	.	.	.
18) C=CCN(CC=C)C(=S)Nc1ccc2nsnc2c1
 : 33.7	i	51.6*	13.1	96.1
19) CCOC(=O)c1[nH]c2ccccc2c1NC(C)=O
 : -2.2	i	0.9	-3.9	99.5
20) CCOC(=O)c1[nH]c2ccccc2c1NC(=O)C(CC)CC
 : 1.6	i	-14.6	3.8	-14.1*

21) CC(=O)NC[C@H]1[C@H](c2ccc(-c3cccnc3)cc2)[C@H](CO)N1C(=O)C1CCC1
22) O=C(O)c1ccccc1NS(=O)(=O)c1ccc(NN=Cc2ccccc2F)c([N+](=O)[O-])c1
23) CCOc1ccc(C=NNc2ccc(S(=O)(=O)Nc3ccccc3C(=O)O)cc2[N+](=O)[O-])cc1
24) CCOc1cccc(C=NNc2ccc(S(=O)(=O)Nc3ccccc3C(=O)O)cc2[N+](=O)[O-])c1O
25) Cc1nn(-c2ccccc2)c(Cl)c1/C=N/Nc1ccc(S(=O)(=O)Nc2ccccc2C(=O)O)cc1[N+](=O)[O-]
26) CSc1ccc(C=NNc2ccc(S(=O)(=O)Nc3ccccc3C(=O)O)cc2[N+](=O)[O-])cc1
compound no. | 21 | 22 | 23 | 24 | 25 | 26
Yeast UUG start | -14.6 | -6.5 | -9.1 | -14.2 | -15.1 | 0.2
PABP FP inh | . | . | . | . | + | .
MLLE-PAM2 inh | . | 13.3 | 2.7 | -6.3 | -6.8 | -6.0
eIF4H FP inh | . | . | . | . | 91.5* | .
DSG3 Ab inh | . | . | 89.4* | 118.3 | 89.2 | 72.4*

27) C[C@H](CO)N1C[C@H](C)[C@@H](CN(C)S(=O)(=O)c2cn(C)cn2)Oc2ccc(NC(=O)Nc3cccc4ccccc34)cc2C1=O
28) C[C@@H]1CN([C@H](C)CO)C(=O)Cc2cc(NS(C)(=O)=O)ccc2O[C@H]1CN(C)S(=O)(=O)c1cn(C)cn1
29) CC1=NNC(=O)C1Oc1ccccc1 (configuration not stated)
30) CO/N=C/C1C(=O)NN=C1c1ccccc1 (configuration not stated)
31) COc1cccc(NC(=O)N(C)C[C@@H]2Oc3cc(/C=C/c4ccccc4)ccc3S(=O)(=O)N([C@@H](C)CO)C[C@H]2C)c1
32) Cc1c(C(=O)OC2CCC(C)CC2)[nH]c2c1C(=O)CCC2 (configuration not stated)
compound no. | 27 | 28 | 29 | 30 | 31 | 32
Yeast UUG start | 13.9 | -0.2 | . | . | -9.3 | -21.7
PABP FP inh | . | . | i | + | . | i
MLLE-PAM2 inh | . | . | 3.2 | 4.6 | . | -1.2
eIF4H FP inh | . | . | 21.5 | ? | . | 75.0*
DSG3 Ab inh | . | . | . | 106.0 | . | 104.3

33) O=C(C[C@@H]1C=C[C@@H](NC(=O)Cc2ccccn2)[C@H](CO)O1)NCCc1ccccc1
34) COCCNc1nc(-c2cc(C)n(CCc3ccc(OC)cc3)c2C)cs1
35) Oc1[nH]c(=S)sc1/C=C1\C(c2ccccc2)=Nc2ccccc21
36) Oc1[nH]c(=S)sc1C=C1N=c2ccccc2=N1
37) CCOC(=O)c1ccc(-c2nnc(-c3ccc(Cl)cc3Cl)o2)cc1
38) CCOC(=O)c1cc(-c2nnc(-c3ccc(Cl)cc3)o2)c(C)nc1C
compound no. | 33 | 34 | 35 | 36 | 37 | 38
Yeast UUG start | -1.9 | -11.0 | . | 2.9 | -5.0 | -15.4
PABP FP inh | . | i | i | i | i | i
MLLE-PAM2 inh | . | -60.6 | -138.0 | -17.3 | 2.6 | -3.4
eIF4H FP inh | . | 88.2 | 56.9* | -7.7 | 1.1 | -0.3
DSG3 Ab inh | . | 88.9* | 99.4 | 105.2 | 92.9* | 118.7

39) COCCNC(=O)C[C@@H]1C[C@H]2c3cc(NS(C)(=O)=O)ccc3O[C@H]2[C@H](CO)O1
40) Cn1nc2c(c1C(=O)N1CCCC(C(=O)c3cc(F)ccc3F)C1)CCCC2 (configuration not stated)
41) Cn1nc2c(c1C(=O)O)CCCC2
42) CO[C@@H]1CN(C)C(=O)c2ccc(NS(=O)(=O)c3ccc(Cl)cc3)cc2OC[C@H](C)N(C(=O)NC(C)C)C[C@@H]1C
43) CNCc1ccccc1Sc1ccc(O)c(O)c1
44) COc1ccc(Sc2ccccc2CN(C)C)cc1OC
compound no. | 39 | 40 | 41 | 42 | 43 | 44
Yeast UUG start | 4.7 | . | -0.9 | 29.0 | . | -11.9
PABP FP inh | . | i | + | . | i | i
MLLE-PAM2 inh | . | -5.8 | -2.9 | . | 40.5* | 17.9
eIF4H FP inh | . | -2.4 | 102.0* | . | 36.0 | -4.0
DSG3 Ab inh | . | 98.4 | . | . | 56.9* | 104.6

45) c1ccc(CSc2ccc(-c3ccc4c(c3)OCO4)nn2)cc1
46) Fc1ccc(CSc2ccc(-c3ccc4c(c3)OCO4)nn2)cc1
47) C[C@@H]1CN([C@@H](C)CO)C(=O)c2cc(-c3ccccc3F)cnc2O[C@H]1CN(C)C(=O)NC1CCCC1
48) O=C(Nc1ccc(Cl)cc1)N1C[C@H]2[C@@H](c3ccccc31)[C@H](CO)N2C(=O)c1ccccn1
49) O=C(N[C@@H]1CC[C@@H](CCn2cc(-c3ccccc3)nn2)O[C@H]1CO)c1ccccc1F
50) CC(C)Oc1ccc(C(=O)NC2(C(F)(F)F)N=C3SCCN3C2=O)cc1 (configuration not stated)
compound no. | 45 | 46 | 47 | 48 | 49 | 50
Yeast UUG start | -9.6 | . | 11.3 | 0.4 | 10.3 | 8.4
PABP FP inh | i | i | . | . | . | i
MLLE-PAM2 inh | -5.7 | -1.2 | . | . | . | 46.4*
eIF4H FP inh | -12.9 | 9.4 | . | . | . | -7.1
DSG3 Ab inh | 1.2* | . | . | . | . | 112.7

51) CN(C)c1ccc(-c2nnc(-c3ccc(S(=O)(=O)C(F)F)cc3)o2)cc1
52) COc1ccc(-c2nnc(-c3ccc(N(C)C)cc3)o2)cc1
53) C/C(N)=C(/C#N)C(=O)CN1C(=O)NC(Cc2c[nH]c3ccccc23)C1=O (configuration not stated)
54) CCN(c1cccc(C)c1)S(=O)(=O)c1ccc(-c2cc(C)no2)s1
compound no. | 51 | 52 | 53 | 54
Yeast UUG start | -25.2 | -8.5 | -7.1 | -11.3
PABP FP inh | + | i | i | i
MLLE-PAM2 inh | -63.1 | -6.1 | -3.4 | -4.5
eIF4H FP inh | 67.6* | -2.9 | 57.2* | 88.3*
DSG3 Ab inh | 100.3 | 97.0 | 95.9 | 57.8
